Test results from paper PMC3361975.

Tests used:
[1] = test system: NC(=O)c1ccc[n+]([C@@H]2O[C@H](COP(=O)(O)OP(=O)(O)OC[C@H]3O[C@@H](n4cnc5c(N)ncnc54)[C@H](O)[C@@H]3O)[C@@H](O)[C@H]2O)c1; test: purified protein; settings: phosphite and NAD+ varied, 100 mM MOPS pH 7.25, 25 °C
O=[PH](O)O = test: purified protein; settings: 100 mM MOPS pH 7.25, 25 °C

Row | Substance | kcat [1] | Km (O=[PH](O)O; phosphite and NAD+ varied) | kcat (O=[PH](O)O; phosphite and NAD+ varied) | kcat/Km (O=[PH](O)O; phosphite and NAD+ varied) [M⁻¹ s⁻¹] | Km (O=[PH](O)O; NAD+ saturating 4 mM) | kcat (O=[PH](O)O; NAD+ saturating 4 mM) | kcat/Km (O=[PH](O)O; NAD+ saturating 4 mM) [M⁻¹ s⁻¹]
1 | 17X-PTDH (Stutzerimonas stutzeri; A319E/A325V/C336D/D13E/E130K/E175A/E332N/I150F/I313L/L276Q/M26I/Q132R/Q137R/Q215L/R275Q/R301K/V315A/V71I) | 4.50 (0.72) s^-1 | 1.11 (0.12) mM | 4.50 (0.72) s^-1 | 4050 |  |  | 
2 | 17X-PTDH (Stutzerimonas stutzeri; A319E/A325V/C336D/D13E/E130K/E175A/E332N/I150F/I313L/L276Q/M26I/Q132R/Q137R/Q215L/R275Q/V315A/V71I/W134A) |  |  |  |  | 1.91 (0.11) mM | 1.73 (0.14) s^-1 | 901
3 | 17X-PTDH (Stutzerimonas stutzeri; A319E/A325V/C336D/D13E/E130K/E175A/E332N/I150F/I313L/L276Q/M26I/Q132R/Q137R/Q215L/R275Q/V315A/V71I) | 3.27 (0.24) s^-1 | 0.028 (0.007) mM | 3.27 (0.24) s^-1 | 117000 |  |  | 
4 | 17X-PTDH (Stutzerimonas stutzeri; A319E/A325V/C336D/D13E/E130K/E175A/E332N/I150F/I313L/L276Q/M26I/Q132R/Q137R/Q215L/R275Q/R301A/V315A/V71I) | 0.041 (0.007) s^-1 | 19.4 (1.22) mM | 0.041 (0.007) s^-1 | 2.11 |  |  | 
